Experimental data published in ChEMBL document CHEMBL4265908, “Structure-activity and structure-property relationships of novel Nrf2 activators with a 1,2,4-oxadiazole core and their therapeutic effects on acetaminophen (APAP)-induced acute liver injury” (Eur J Med Chem, 2018).

How the values were obtained:
Type in all cases: cell-based
[1] = target: T1, Nuclear factor erythroid 2-related factor 2 (Homo sapiens) (UniProt Q16236); assay: Activation of Nrf2 in human HepG2-ARE-C8 cells assessed as induction of ARE-mediated luciferase activity at 20 uM after 24 hrs by luciferase reporter gene assay relative to control
T1 sequence (whole entry): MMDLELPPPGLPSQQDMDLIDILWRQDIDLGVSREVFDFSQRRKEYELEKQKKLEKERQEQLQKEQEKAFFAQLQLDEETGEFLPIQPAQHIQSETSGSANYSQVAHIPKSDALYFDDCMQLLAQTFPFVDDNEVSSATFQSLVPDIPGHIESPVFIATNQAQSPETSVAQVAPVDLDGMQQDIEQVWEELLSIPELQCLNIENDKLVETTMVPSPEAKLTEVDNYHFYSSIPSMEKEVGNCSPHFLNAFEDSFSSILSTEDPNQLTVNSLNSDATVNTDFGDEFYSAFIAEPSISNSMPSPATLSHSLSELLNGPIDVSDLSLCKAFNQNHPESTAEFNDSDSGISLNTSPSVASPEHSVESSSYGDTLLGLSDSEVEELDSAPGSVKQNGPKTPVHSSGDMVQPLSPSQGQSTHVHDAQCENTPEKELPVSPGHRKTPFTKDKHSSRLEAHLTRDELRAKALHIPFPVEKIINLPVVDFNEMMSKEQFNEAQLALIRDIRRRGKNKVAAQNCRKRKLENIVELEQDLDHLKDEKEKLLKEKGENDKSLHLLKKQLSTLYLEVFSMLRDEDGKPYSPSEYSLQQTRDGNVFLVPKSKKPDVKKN
In short: (§1)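 HepG2-ARE-C8 cells stably carrying ARE-luciferase, grown in DMEM with 10% FBS at 37 °C and 5% CO2. Seeded at 5 × 10^4 cells/well, left overnight, then given compound diluted from a 10 mM DMSO stock for 24 h. Cells lysed and luciferase read as RLU. Inductivity = (RLUtest − RLUblank)/(RLUcontrol − RLUblank), with DMSO as control. Mean ± SEM of three experiments.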

[2] = target: T1, Nuclear factor erythroid 2-related factor 2 (Homo sapiens); assay: Activation of Nrf2 in human HepG2-ARE-C8 cells assessed as induction of ARE-mediated luciferase activity at 80 uM after 24 hrs by luciferase reporter gene assay relative to control; in short: as §1
[3] = target: T1, Nuclear factor erythroid 2-related factor 2 (Homo sapiens); assay: Activation of Nrf2 in human HepG2-ARE-C8 cells assessed as induction of ARE-mediated luciferase activity at 0.1 uM after 24 hrs by luciferase reporter gene assay relative to control; in short: as §1
[4] = target: T1, Nuclear factor erythroid 2-related factor 2 (Homo sapiens); assay: Activation of Nrf2 in human HepG2-ARE-C8 cells assessed as induction of ARE-mediated luciferase activity at 1 uM after 24 hrs by luciferase reporter gene assay relative to control; in short: as §1
[5] = target: T1, Nuclear factor erythroid 2-related factor 2 (Homo sapiens); assay: Activation of Nrf2 in human HepG2-ARE-C8 cells assessed as induction of ARE-mediated luciferase activity at 40 uM after 24 hrs by luciferase reporter gene assay relative to control; in short: as §1

- Activity [1]: 27.3
- Activity [2]: 44.4
- Activity [3]: 2.49
- Activity [4]: 10.2
- Activity [5]: 40.8
Compound: Fc1ccc(-c2nc(-c3ccc4nc[nH]c4c3)no2)cc1
